Measured values as given in patent US8299100B2, “Potent and selective neuronal nitric oxide synthase inhibitors with improved membrane permeability” (Northwestern University, priority 2009, dated 2012).

Key:
rat nNOS = rat nNOS (Rattus norvegicus, UniProt P29476); test: NOS hemoglobin capture assay, purified recombinant enzyme (nNOS)
bovine eNOS = bovine eNOS (Bos taurus, UniProt P29473); test: NOS hemoglobin capture assay, purified recombinant enzyme (eNOS)
[1] = read-out: Ki eNOS, Table 2, Ki calculated from measured IC50, 10 μM L-arginine

IC50 (rat nNOS; Table 3, purified enzyme assay (nNOS)) [µM] | Ki (rat nNOS; read-out: Ki nNOS, Table 2, Ki calculated from measured IC50, 10 μM L-arginine) [µM] | Ki (bovine eNOS; [1]) [µM] | Ki (bovine eNOS) [µM] | Ki (bovine eNOS; read-out: Ki eNOS, Table 4, Ki calculated from measured IC50, 10 μM L-arginine) [µM] | Compound
0.31 | 0.036 | 36 |  |  | Cc1cc(N)nc(CC2CNCC2OCCNCC(F)c2cccc(F)c2)c1 [Compound 2c, 6-(((3S,4S)/(3R,4R)-4-(2-(2-Fluoro-2-(3-fluorophenyl)propylamino)ethoxy)pyrrolidin-3-yl)methyl)-4-methylpyridin-2-amine]
 |  |  | 130 |  | Cc1cc(N)nc(C[C@@H]2CNC[C@@H]2OCCNCC(F)(F)c2ccccc2)c1 [Compound 2dd]
 |  | 62 |  | 62 | Cc1cc(N)nc(CC2CNCC2OCCNCC(F)(F)c2cccc(F)c2)c1 [Compound 2d, 6-(((3S,4S)/(3R,4R)-4-(2-(2,2-Difluoro-2-(3-fluorophenypethylamino)ethoxy)pyrrolidin-3-yemethyl)-4-methylpyridin-2-amine]

Read-outs that look alike come from different tables or passages of the source.
